The assay deals with T1, AF9-YEATS domain (residues 1–138) for X-ray analysis and ITC (human, UniProt P42568 1-138).
T1 construct: AF9 YEATS domain, human, residues 1–138; cloned in the pCR2.1 vector encoding GST and the polyhistidine tag; source: purified (HisTrap HP, Superdex 200)
T1 sequence (looked up): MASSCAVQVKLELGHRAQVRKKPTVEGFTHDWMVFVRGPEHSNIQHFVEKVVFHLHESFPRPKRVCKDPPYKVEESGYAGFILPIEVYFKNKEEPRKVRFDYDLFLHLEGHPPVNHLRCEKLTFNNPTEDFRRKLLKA
In words: ITC; protein (100 μM) in the cell, peptide (1 mM) in the syringe; 15 °C; 20 mM Tris-HCl pH 7.6, 500 mM NaCl; single binding site model. To be noted: both partners purified. For orientation: ITC needs no label: the signal is the heat of the interaction.

By Kd is commonly meant the free concentration of one partner at which half of the binding sites on the other are occupied at equilibrium, for simple one-to-one binding. Read a high Kd as lower affinity.

B1: K9-acetylated H3 (1–19) peptide (peptide, UniProt P68431 2-20, looked up)
peptide: ARTKQTARKSTGGKAPRKQ
modifications: acetyl-lysine at K9
notes: histone H3, residues 1–19; also called K9-acetylated H3 peptide
Consider B1, for which binding was put at a Kd of 7 µM.
